Biological target: human aldose reductase (hALR2) (Homo sapiens, UniProt P15121)
Assay: Inhibition of human aldose reductase (hALR2), methods similar to Butera et al.
Format: biochemical
Experimental: Representative compounds of Formula Iwere tested for their potency, selectivity and efficacy as inhibitors of human aldose reductase.
Since high potency of test compounds as inhibitors of aldose reductase is desirable, low hALR2 IC50 values are sought. On the other hand, high potency of test compounds as inhibitors of aldehyde reductase is undesirable, and high ALR1 IC50s values are sought. Accordingly, the hALR1/hALR2 ratio is used to determine the selectivity of the test compounds. The importance of this selectivity is Described in Kotani, et al., J. Med. Chem. 40: 684, 1997.

## 3-[6-Fluorbenzothiazole-2-yl]methyl-indole-N-acetic Acid [Example 24]
  IC50: 1040 nM

Reference: patent US6521659B2, “Compositions containing a substituted indolealkanoic acid and an angiotensin converting enzyme inhibitor” (Institute for Pharmaceutical Discovery, LLC, priority 2000, dated 2003)
